AlphaSeq binding of Ab-14 light chain variants to a spike HR2 peptide

Values reported by Li et al. 2023, doi:10.1038/s41467-023-39022-2 (FLAb copy).

Target: peptide PDVDLGDISGINAS, taken from heptad repeat 2 (HR2) of SARS-CoV-2 spike.

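The parent was found by panning a naive human phage display library on the peptide. This is the validation round: designs drawn from the data on random variants, tested in the same kind of assay. Group labels follow the data file (Ctrl: baseline library sampled from a position-specific scoring matrix, with some repeated check sequences; En: ensemble of fine-tuned language models; GP: Gaussian process model; HC: hill climbing; Gen: genetic algorithm; Gibbs: Gibbs sampling; a sequence that several methods proposed may carry one label only). AlphaSeq pools MATa yeast showing the antibodies with MATalpha yeast showing the peptide. Mating (16 h, 30 °C) was followed by selection of diploids and sequencing of their barcodes. Read counts were normalised to the haploid input and turned into Kd by a linear fit to BCL2-family pairs of known affinity, for each replicate. Each pool was mated in six replicate cultures.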

Parent: Ab-14, a human scFv built as VH, the linker GGGGSGGGGSGGGGS, VL. Only the CDRs of the light chain vary.
VH: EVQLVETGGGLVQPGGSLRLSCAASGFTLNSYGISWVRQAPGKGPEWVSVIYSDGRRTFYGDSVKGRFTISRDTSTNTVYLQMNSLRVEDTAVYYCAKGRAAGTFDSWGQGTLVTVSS
VL: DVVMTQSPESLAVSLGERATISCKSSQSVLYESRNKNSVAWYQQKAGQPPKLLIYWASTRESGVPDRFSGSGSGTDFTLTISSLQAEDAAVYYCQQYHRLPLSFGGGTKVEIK

Variants are written as CDR1, CDR2 and CDR3 of the light chain (limits as in the source). Parent: KSSQSVLYESRNKNSVA, WASTRES, QQYHRLPLS. Values are log10 of the apparent Kd in nM; lower means stronger binding. Averages over replicates are reported, and they cover detected replicates only. "nd" means that the variant was in the library but no mating with the target was seen in any replicate; the authors take this as a sign of poor binding, and no number exists. Nonspecific signal, from three strains lacking the peptide, appeared in 4% of pairings of all light chain designs, centred on 2.64 (5% of these signals below 1.59); values are not corrected for it. The control count says in how many pairings with the empty strains this scFv gave a signal. The parent sequence was in this pool as ten entries: three were never detected, three once, and four in most replicates, with averages from 0.34 to 2.37. In the paper, a design with two or fewer of six values counts as a poor binder. Values of this round are not directly comparable with the first-round values of the same sequences.

| CDR-L1 | CDR-L2 | CDR-L3 | group | mean, log10 nM | replicates with signal | signal with controls |
|---|---|---|---|---|---|---|
| KIDISELGESRNWNSVA | NASQREE | QQYHRLPLS | GP_Gibbs | -0.26 | 6 of 6 | 1 of 18 |
| KSSQSVLYESRNVNSIA | QASTRES | QQYERLPLS | Ctrl | 0.25 | 6 of 6 | 0 of 18 |
| KWEWSQLYESRNKNSVA | NASTRES | QQYRRLPLS | GP_Gibbs | 0.01 | 6 of 6 | 2 of 18 |
| KSSQSVLYESRNKNSVA | WAITRES | QQYHRLPLS | Ctrl | nd | 0 of 6 | 0 of 18 |
| KLQQSELYESRNKNSVA | QASTRES | QQYHRLPLS | GP_Gen | -0.19 | 6 of 6 | 0 of 18 |
| KISQSVLMESRNKNSVA | DASTRES | QQYHRLPLS | GP_Gen | -0.03 | 6 of 6 | 0 of 18 |
| KLPQSAEYGSRNKNSVA | SASTRES | QQYHRLPLS | GP_Gibbs | -0.37 | 6 of 6 | 0 of 18 |
| KLYQSNLYESRNKNSVA | NASQRES | QQYHRLPLS | GP_Gen | 0.12 | 6 of 6 | 1 of 18 |
| MISQLYNMGQFAINSVA | QASIRNQ | QQYDRLPLA | En_Gen | 0.52 | 6 of 6 | 0 of 18 |
| KLSMTTEMEHKNRNSVA | ELVTRMQ | QQYNRLPLS | En_Gen | 1.30 | 6 of 6 | 0 of 18 |
| KLSQSVLYESRVKNSVA | EASQRES | QQYHRLPLS | GP_Gen | -0.56 | 6 of 6 | 1 of 18 |
| KSSWSYLYESRNKNSVA | EASTRES | QQYHRLPLM | GP_HC | 0.27 | 6 of 6 | 2 of 18 |
| MISQIYNMGSFAINSVA | QASERNE | QQYDRLPLM | En_Gen | 0.90 | 5 of 6 | 0 of 18 |
| KQQQSALGEERNFNSVA | HASTRIS | QQYHRLPLS | GP_Gibbs | 0.97 | 6 of 6 | 2 of 18 |
| DYSQSWLYESRNKNSVA | GASTRES | QQYHRLPLS | GP_HC | -0.09 | 6 of 6 | 3 of 18 |
| KYSQNVLIMGRNKNSVA | EMTTREE | QQYDRLPLS | En_HC | 0.72 | 6 of 6 | 0 of 18 |
| KLTISGLHQSIDKKSIA | ERSTREN | QQYHRLPLS | En_HC | 1.56 | 5 of 6 | 0 of 18 |
| KSSQSVLYESRNKNSVA | NASTRED | QQYHRLPLS | Ctrl | 0.69 | 6 of 6 | 2 of 18 |
| KLPQSDLYESRNKNAVA | EASTRES | QQYHRLPLS | GP_Gen | -0.30 | 6 of 6 | 1 of 18 |
| MISDLTMLGSRNKNSVA | DLSTRGS | QQYHRLPLS | En_HC | 0.22 | 6 of 6 | 1 of 18 |
| KLSQEWLYENRNKNNVA | HASKRSS | QQYHRLPLS | GP_Gibbs | 0.27 | 6 of 6 | 0 of 18 |
| KISMLQRYQSNAKNNIA | EMSRREE | QQYHRLPLS | En_HC | 0.45 | 6 of 6 | 2 of 18 |
| ILMQVYKEPGAAVNNIA | DGANRLQ | QQYHRLPLV | En_Gibbs | 2.07 | 3 of 6 | 0 of 18 |

Second part, the sequence after the result:

| mean, log10 nM | replicates with signal | signal with controls | CDR-L1 | CDR-L2 | CDR-L3 | group |
|---|---|---|---|---|---|---|
| 0.42 | 6 of 6 | 0 of 18 | KSSPVVLYESENKNSVA | NASTRMS | QQYHRLPLS | GP_HC |
| 0.01 | 6 of 6 | 0 of 18 | KFSQSNLYESRNTNSVA | DASTRES | QQYHRLPLS | Ctrl |
| 2.26 | 5 of 6 | 0 of 18 | KSSQSVLYESLNYNSVA | WASTRES | QQYHRLPLS | Ctrl |
| -0.22 | 6 of 6 | 0 of 18 | KLPQGVLYESRNKNSVA | EASVRES | QQYHRLPLS | GP_HC |
| 0.23 | 6 of 6 | 0 of 18 | KSSQSVLYFDNNKNSVA | GASTREA | QQYHRLPLS | Ctrl |
| 0.22 | 6 of 6 | 0 of 18 | KSSWSVLFESRNKNSVA | DASTRCS | QQYHRLPLS | GP_HC |
| -0.09 | 6 of 6 | 0 of 18 | KLDQSDLMESRNWNAVA | QASTREI | QQYHRLPLS | GP_Gibbs |
| 2.17 | 6 of 6 | 1 of 18 | KSSQSVLYESRMKNSVA | WASERES | QQYHRLPLS | Ctrl |
| 0.24 | 6 of 6 | 0 of 18 | KIGGTLNTLMHQKNNVA | DLVMREN | QQYHRLPLS | En_Gen |
| 0.63 | 6 of 6 | 0 of 18 | KITSHEWEGTADNSAMA | NADVSHD | QQYSRLPLF | En_Gibbs |
| 0.17 | 6 of 6 | 1 of 18 | HSSPSVLYESRNWNSVA | NASTRES | QQYHRLPLS | GP_HC |
| 0.00 | 6 of 6 | 0 of 18 | KVSQSVLGEQRNKNSVA | DISTRES | QQYHRLPLS | GP_HC |
| 0.22 | 6 of 6 | 1 of 18 | KSEQGVLYESRVKNSVA | GASTRES | QQYHRLPLS | GP_HC |
| 0.62 | 6 of 6 | 0 of 18 | KSSQEVLQEDRNKNSVA | TASERES | QQYHRLPLS | Ctrl |
| -0.23 | 6 of 6 | 3 of 18 | KLEQSVLYESRNKNSVA | NASTRCS | QQYHRLPLS | GP_Gen |
| 1.09 | 6 of 6 | 1 of 18 | KSSQSCLYESRNKNPVA | NASTRES | QQYHRLPLS | Ctrl |
| -0.10 | 6 of 6 | 1 of 18 | KLQQSPLYESRNKNSVA | NASTRES | QQYHRLPLS | GP_Gen |
| 2.83 | 6 of 6 | 1 of 18 | KIMQSLNYEQFNVSNVA | GQETREE | QSYHRLPLS | En_HC |
| 1.15 | 6 of 6 | 0 of 18 | KSSQSDGAESRNKNSVA | WASTRES | QQYHRLPLA | Ctrl |
| 0.13 | 6 of 6 | 0 of 18 | MISDLTMYGSRNVNSVA | DLSTRGN | QQYDRLPLS | En_HC |
| 2.04 | 1 of 6 | 2 of 18 | KLSQFYRMEQRNKNSVA | DNSTRES | QDYDRLPLS | En_HC |
| 0.56 | 6 of 6 | 1 of 18 | KSSPSELYEDRAFNSVA | HASTRES | QQYHRLPLS | GP_Gibbs |
| nd | 0 of 6 | 0 of 18 | FMEMDFQENSGRHNSVA | SEEVKTR | QHYGRLPLS | En_Gibbs |

A selection of 3 entries from above:

CDR-L1,CDR-L2,CDR-L3,group,"mean, log10 nM",replicates with signal,signal with controls
HSSPSVLYESRNWNSVA,NASTRES,QQYHRLPLS,GP_HC,0.17,6 of 6,1 of 18
KIMQSLNYEQFNVSNVA,GQETREE,QSYHRLPLS,En_HC,2.83,6 of 6,1 of 18
MISQIYNMGSFAINSVA,QASERNE,QQYDRLPLM,En_Gen,0.90,5 of 6,0 of 18